These are literature values, as cited in article PMC10019135.

Amino acid sequences for entries named in this document (tags omitted). Residues count along the entry.
UniProt P01589, 22-240, chain 1 of 3: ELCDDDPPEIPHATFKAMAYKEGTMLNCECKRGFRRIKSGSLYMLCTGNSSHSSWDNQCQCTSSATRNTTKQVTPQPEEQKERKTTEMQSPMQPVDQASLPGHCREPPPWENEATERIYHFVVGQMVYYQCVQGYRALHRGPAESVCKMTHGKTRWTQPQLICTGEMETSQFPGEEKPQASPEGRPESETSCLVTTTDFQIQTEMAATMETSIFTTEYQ
UniProt P60568, 21-153: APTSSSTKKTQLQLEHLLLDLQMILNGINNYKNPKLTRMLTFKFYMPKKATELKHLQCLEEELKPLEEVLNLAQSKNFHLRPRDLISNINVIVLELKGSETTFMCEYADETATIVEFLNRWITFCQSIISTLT

In this data set the target is IL-2Rα/β/γc heterotrimer (Homo sapiens) (UniProt P01589).

IL-2 (from UniProt P60568): the dissociation constant (Kd) is 0.01 nM.
